Target: human MRGPRX2 (Homo sapiens, UniProt Q96LB1)
Experiment: MRGPRX2 activity: IP-One HTRF antagonist assay in CHO cells versus Cortistatin-14
Conditions: read-out: MRGPRX2 Antagonist Activity; CHO cells stably expressing human MRGPRX2; versus 0.3 uM Cortistatin-14 agonist; IP-1 HTRF
Description: CHO cells stably transfected to express human MRGPRX2 were maintained in an incubator at 37° C. with 5% CO2 and grown in F12 (HAM) media with 10% fetal bovine serum (FBS), 1% Glutamax, 1% penicillin/streptomycin, 800 μg/mL Geneticin (G418), and 300 μg/mL Hygromycin B.
Cells were plated in a 384-well assay plate at 20,000 cells per well in 12 μL of Opti-MEM and kept in an incubator overnight. On the day of the assay, compounds solubilized at 10 mM in DMSO were added as a 10-point curve (30 uM final top concentration with 1:3 serial dilutions) using a Tecan D300E digital dispenser. Agonists were diluted in assay buffer (final concentrations of 5.7 mM Tris-HCl, 43 mM NaCl, 50 mM LiCl, pH=8) and 2 μL of the agonist Cortistatin-14 (CPC Scientific, catalog CORT-002) are added to each well. Final concentrations of agonists were 0.3 μM Cortistatin. Final concentrations of DMSO were kept consistent across the plate. Plates were incubated in the dark for 1 h at 37° C. and then for 1 h at room temperature. IP-1 standards and HTRF detection reagents were added according to the IP-One-Gq Kit purchased from Cisbio (part number 62IPAPEJ) and incubated in the dark for 1 h at room temperature. The plate was read on a Molecular Devices SpectraMax iD5 plate reader. The HTRF ratio was calculated from the raw data and graphed using GraphPad Prism to calculate an IC50 value for each compound. […]

The chains behind the UniProt entries cited, without tags or fusion partners.
UniProt Q96LB1, whole entry: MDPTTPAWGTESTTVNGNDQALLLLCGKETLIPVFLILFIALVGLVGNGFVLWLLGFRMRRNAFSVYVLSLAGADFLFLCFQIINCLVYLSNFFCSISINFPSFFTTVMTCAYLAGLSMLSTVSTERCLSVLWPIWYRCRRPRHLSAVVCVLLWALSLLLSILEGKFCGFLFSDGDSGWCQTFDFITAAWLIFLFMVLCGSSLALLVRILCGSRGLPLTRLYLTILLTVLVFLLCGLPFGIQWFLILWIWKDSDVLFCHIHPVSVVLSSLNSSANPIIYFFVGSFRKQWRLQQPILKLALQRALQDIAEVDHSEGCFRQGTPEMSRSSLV

IC50: < 100 nM
Structure (SMILES): N#CCCn1ncc(C(=O)N[C@@H]2CCC[C@H](Nc3cc(C(F)(F)F)nc4ccc(Cl)cc34)C2)c1Cl
